This note sets out measurements from PubChem BioAssay AID504414 (Broad Institute, 2011).

SMILES strings stand for the structures. Only a part is listed here, and it is no random draw. Calls of active or inactive are those of the source.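 Rule for the calls: active = highest replicate inhibition of at least 40%; inactive = the rest.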

The target in this experiment is Golgi-associated PDZ and coiled-coil motif-containing protein (Homo sapiens) (UniProt Q9HD26). As to the kind of experiment: CAL PDZ peptide-binding inhibitors, primary screen, biochemical, fluorescence polarization, Cer-tagged CAL PDZ, HTS (AID 504414).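 Note: plate controls were DMSO neutral control wells for no effect and unlabeled competitor peptide control wells for full effect.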 The conditions noted are these: purified CAL PDZ, TMR-peptide fluorescence polarization, 1 h; at 20 µM; stronger effect = higher value. (In fluorescence polarisation assays a small probe gives low polarisation when free and higher when bound to something large.)
A word on the inhibition: it is the relative decrease from the control value, in per cent. Consider `O=C(NCC1(N2CCCCC2)CCCCC1)c1ccc(OC(F)F)cc1`, for which the inhibition is inactive: -1.47%.

Consider `O=C(NCC1(N2CCCCC2)CCCCC1)c1cccc([N+](=O)[O-])c1`, for which the inhibition was inactive: -1.88%.

Turning to `CSc1ccc(C(=O)NCC2(N3CCOCC3)CCCCC2)cc1`, the inhibition was inactive: -3.66%.

As to `CCN1CCC(Nc2ccc(Cl)cc2)CC1`, the inhibition was inactive: -0.202%.

`N#CC1(Nc2ccccc2)CCN(CCc2ccccc2)CC1`: the inhibition is inactive: -0.525%.

In the case of `O=C(NCC1(N2CCCCC2)CCCCC1)c1cccc(C(F)(F)F)c1`, the inhibition was inactive: -2.38%.

Turning to `CN1CCN(CCOC(=O)C(O)(c2ccccc2)c2ccccc2)CC1`, the inhibition is inactive: 0.442%.

With `COc1ccc(NC2CCN(C(=O)OC(C)(C)C)CC2)cc1`, the inhibition is inactive: -0.984%.

For `CC(C)c1ccc(C(=O)NCC2(N3CCOCC3)CCCCC2)cc1`, the inhibition was inactive: -1.92%.

As to `COc1cc(C(=O)NCC2(N3CCCCC3)CCCCC2)ccc1OC(F)F`, the inhibition is inactive: -0.604%.

Consider `O=C(NCC1(N2CCOCC2)CCCCC1)c1cc(=O)[nH]c2ccccc12`, for which the inhibition was inactive: -3.8%.

Take `COc1ccc(CN(CCCl)CCCl)cc1Cl`: the inhibition is inactive: -1.28%.

As for `CN(C)c1cccc(C(=O)NCC2(N3CCCCC3)CCCCC2)c1`, the inhibition is inactive: -0.835%.

With `CC(C)c1ccc(NC2CCN(C(=O)OC(C)(C)C)CC2)cc1`, the inhibition was inactive: -2.01%.

As for `COc1cc(OC)c(C(=O)NCC2(N(C)C)CCCCC2)cc1OC`, the inhibition was inactive: -0.777%.

Consider `O=C(NCC1(N2CCOCC2)CCCCC1)c1cc(F)c(F)cc1Cl`, for which the inhibition was inactive: 0.855%.

With `O=C(NCC1(N2CCCCC2)CCCCC1)c1cncc(Br)c1`, the inhibition was inactive: 0.47%.

Take `CN1CCC(Nc2cccc(F)c2)CC1`: the inhibition is inactive: -2.49%.

As for `O=C(NCC1(N2CCCCC2)CCCCC1)c1ccc(=O)[nH]c1`, the inhibition is inactive: -0.0615%.

For `O=C(NCC1(N2CCCCC2)CCCCC1)c1cccs1`, the inhibition was inactive: -2.23%.

As to `COc1ccc(C(=O)NCC2(N3CCCCC3)CCCCC2)cc1`, the inhibition is inactive: -1.62%.

With `COc1ccc(C(=O)NCC2(N3CCCCC3)CCCCC2)c(OC)c1OC`, the inhibition was inactive: 0.295%.

In the case of `CC(C)(C)OC(=O)N1CCC(N(C(=O)c2ccccc2)c2ccc(F)cc2)CC1`, the inhibition is inactive: 0.97%.

As to `CSc1ccccc1C(=O)NCC1(N2CCCCC2)CCCCC1`, the inhibition was inactive: -0.00409%.

Regarding `Cc1cccc(NC2(C#N)CCN(Cc3ccccc3)CC2)c1`, the inhibition is inactive: -0.126%.

As to `O=C(NCC1(N2CCOCC2)CCCCC1)c1cc2ccccc2o1`, the inhibition is inactive: -0.971%.

With `O=C(NCC1(N2CCCCC2)CCCCC1)c1ccc(Cl)nc1`, the inhibition is inactive: -2.87%.

Turning to `Cc1cc(C)cc(N(C(=O)c2ccccc2)C2CCN(C(=O)OC(C)(C)C)CC2)c1`, the inhibition is inactive: -0.158%.
